Where “and” joins values, the source holds several entries; their conditions need not be identical. Equal values may be shown once.
Columns and labels:
[1] = system: P-glycoprotein (P-gp, MDR1); experiment: Cell permeability MDR1-MDCK II; format: in vitro ADME; conditions: dog, insufficient recovery (<50.0), read-out: MDR1-MDCK II, efflux ratio (ER)
Description: Selected compounds were screened for aqueous solubility in PBS (pH 7.4), metabolic stability in mouse liver microsomes (MLM) as a measure of clearance, Log D, and permeability. ADME studies reported in this work were independently performed by WuXi AppTec (Shanghai, China). Raw data are provided upon request.

Sequences of proteins named here, by UniProt entry; tags and fusion partners are left off. A change or cut given only in a name is not applied to a line headed by its entry.
UniProt P26447: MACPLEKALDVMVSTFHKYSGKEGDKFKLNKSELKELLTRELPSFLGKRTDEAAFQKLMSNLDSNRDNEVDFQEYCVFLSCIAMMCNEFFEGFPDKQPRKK

S100A4 [2] = target: T1, S100A4 (Homo sapiens, UniProt P26447); experiment: Kinetics of S100A4 labeling, RapidFire MS time course; format: binding; set-up: His6 (TEV-cleavable, pNIC28-Bsa4) (N); made in house; host or cells: E. coli Rosetta (DE3); conditions: 100 μM inhibitor, S100A4 1 μM / 20 μM, calcium, triplicate
Method: In order to determine the kinetics of S100A4 inhibition by phenylproline derivatives, we performed a time course of the detection of unmodified S100A4 (1 μM) against each covalent inhibitor (100 μM) in the presence of calcium. Each experiment was done in triplicate using a RapidFire MS system. The rate of the reaction was determined as −kobs = ln([A]/[A0]).
For kinetic determination of S100A4 inhibition, 1 μM S100A4 was mixed with a 100 μM covalent inhibitor in 50 mM MES, pH 7.0, and 1 mM CaCl2 buffer. The mixture was analyzed over time using the RapidFire MS system (Agilent Technologies).

S100A4 [3] = target: T1, S100A4; experiment: Protein labeling detection by mass spectrometry, S100A4; conditions: 10 μM S100A4, 100 μM inhibitor, 1 h

efflux ratio [1] | kobs of S100A4 labeling (S100A4 [2]) | shift of the S100A4 protein mass (covalent adduct) (S100A4 [3]) [Da] | SMILES
< 3.62 | 22 × 10^–4 s^–1 and 22. 10^-4 s^–1 | – | O=C(Nc1cccc(Cl)c1)[C@H]1C[C@H](c2ccccc2)CN1C(=O)CCl [5a]
– | – | 340 | O=C(Nc1cccc(Cl)c1)[C@H]1C[C@H](c2ccccc2)CN1C(=O)CCl [compound 5]
